Data reported in patent publication US20020103111A1, “Inhibitors of MAdCAM-1-mediated interactions and methods of use therefor” (Millennium Pharmaceuticals, Inc., priority 1996, published 2002).

The chains behind the UniProt entries cited, without tags or fusion partners. Residues count along the entry.
UniProt P13612, 34-1032: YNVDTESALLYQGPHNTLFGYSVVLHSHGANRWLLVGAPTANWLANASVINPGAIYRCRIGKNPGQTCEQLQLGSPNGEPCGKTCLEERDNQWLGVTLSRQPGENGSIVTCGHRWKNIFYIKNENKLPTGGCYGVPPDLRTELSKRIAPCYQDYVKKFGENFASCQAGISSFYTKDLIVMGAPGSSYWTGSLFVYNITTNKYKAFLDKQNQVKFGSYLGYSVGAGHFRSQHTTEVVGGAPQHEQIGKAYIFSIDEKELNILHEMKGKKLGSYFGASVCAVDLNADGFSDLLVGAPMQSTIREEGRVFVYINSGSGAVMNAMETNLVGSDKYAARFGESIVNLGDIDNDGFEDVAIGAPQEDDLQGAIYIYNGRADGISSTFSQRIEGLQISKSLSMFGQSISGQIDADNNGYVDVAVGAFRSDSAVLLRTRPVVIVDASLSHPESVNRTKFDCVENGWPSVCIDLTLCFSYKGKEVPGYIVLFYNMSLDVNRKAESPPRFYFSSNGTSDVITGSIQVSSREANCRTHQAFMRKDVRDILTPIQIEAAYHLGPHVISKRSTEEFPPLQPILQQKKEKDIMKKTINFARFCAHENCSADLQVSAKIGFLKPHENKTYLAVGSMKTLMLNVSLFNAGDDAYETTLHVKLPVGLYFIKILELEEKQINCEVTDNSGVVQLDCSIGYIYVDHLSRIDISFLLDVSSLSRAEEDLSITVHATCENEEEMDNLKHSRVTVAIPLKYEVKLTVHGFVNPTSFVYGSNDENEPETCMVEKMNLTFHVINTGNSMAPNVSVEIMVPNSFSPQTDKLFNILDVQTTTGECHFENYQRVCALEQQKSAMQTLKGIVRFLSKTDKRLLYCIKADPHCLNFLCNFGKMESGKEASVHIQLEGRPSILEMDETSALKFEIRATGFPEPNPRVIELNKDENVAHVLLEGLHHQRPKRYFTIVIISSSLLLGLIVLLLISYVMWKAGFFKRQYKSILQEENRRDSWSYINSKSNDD
UniProt P26010, 20-798: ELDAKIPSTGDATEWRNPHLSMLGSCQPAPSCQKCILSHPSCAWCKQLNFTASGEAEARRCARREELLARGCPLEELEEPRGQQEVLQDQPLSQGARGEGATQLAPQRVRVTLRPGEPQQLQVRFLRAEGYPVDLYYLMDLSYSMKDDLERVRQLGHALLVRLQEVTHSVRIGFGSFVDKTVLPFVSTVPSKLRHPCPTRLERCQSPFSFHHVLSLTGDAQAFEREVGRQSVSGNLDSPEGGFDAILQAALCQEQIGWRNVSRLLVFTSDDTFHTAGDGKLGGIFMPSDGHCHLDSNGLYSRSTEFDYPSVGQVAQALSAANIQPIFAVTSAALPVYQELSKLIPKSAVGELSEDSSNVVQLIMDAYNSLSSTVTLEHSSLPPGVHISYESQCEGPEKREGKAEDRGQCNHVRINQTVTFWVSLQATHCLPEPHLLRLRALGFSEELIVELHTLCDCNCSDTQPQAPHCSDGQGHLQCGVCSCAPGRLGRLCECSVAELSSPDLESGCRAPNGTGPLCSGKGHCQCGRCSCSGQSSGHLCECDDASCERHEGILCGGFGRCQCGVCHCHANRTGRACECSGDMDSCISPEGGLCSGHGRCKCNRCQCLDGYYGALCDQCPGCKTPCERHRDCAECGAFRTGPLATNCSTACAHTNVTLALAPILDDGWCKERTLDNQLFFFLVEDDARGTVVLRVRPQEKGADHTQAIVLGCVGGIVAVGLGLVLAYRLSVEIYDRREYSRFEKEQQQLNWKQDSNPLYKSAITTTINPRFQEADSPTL

Target: T1, murine MAdCAM-1 (MAdCAM-1/mCk fusion protein); α4β7-bearing HUT 78 cells (Homo sapiens, UniProt P13612+P26010)
T1 construct: host or cells: HUT 78 cells (endogenous α4β7); The MAdCAM-1/mCk partner was made in house in baculovirus-infected Sf9 insect cells, used as neat supernatant and captured by rat anti-mCk antibody
Test: Adhesion of HUT 78 cells to MAdCAM-1/mCk fusion protein bound via capture antibody
Format: cell-based
Settings: HUT 78 cell adhesion to MAdCAM-1/mCk; average of two determinations
Description: The compounds of the present invention were evaluated for their biological properties.
A soluble fusion protein comprising murine MAdCAM-1 was produced in a baculovirus expression system and used in the adhesion assay. A fusion gene in which sequences encoding the signal peptide and extracellular domain of murine MAdCAM-1 were fused to sequences encoding a constant region of the murine kappa light chain (mCk) was constructed, and cloned into a baculovirus shuttle vector. Fusion protein produced from the resulting construct contained the integrin binding sequences of murine MAdCAM-1 at the amino-terminus, and the mCk sequence at the carboxy-terminus. Recombinant baculovirus encoding the fusion protein was harvested from infected Sf9 insect cells.
Human T-cell lymphoma cells (HUT 78 cells) activated with Mn^+2 were used for the adhesion assay in a 96-well format. HUT 78 cells were labelled by preincubation with ECECF-AM stain (Molecular Probes). […] The adhesion of HUT 78 cells to MAdCAM-1/mCk fusion protein bound to wells via rat anti-mCk capture antibody was assessed in the presence or absence of each compound. […] Percent inhibition and IC50 values were determined. […]
Cell adhesion was measured in the presence or absence of compounds. […]
Additional determinations were conducted as needed, so that each IC50 was determined over a range which encompassed the IC50.

Row | Substance | IC50 [mM]
1 | Ac-Leu-Asp-HyP-Ser-Leu [Example 48] | 0.106
2 | Ac-Lle-Asp-Thr-Ser-Leu [Example 46] | 19
